ChEMBL document CHEMBL5260822, “Structure-based design and synthesis of 2,4-diaminopyrimidines as EGFR L858R/T790M selective inhibitors for NSCLC” (Eur J Med Chem, 2017)

organism: Homo sapiens; assay: Selectivity ratio, ratio of IC50 for inhibition of wild type EGFR (unknown origin) to IC50 for inhibition of EGFR L858R/T790M mutant (unknown origin)
Outline: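 EGFR WT and L858R/T790M kinase domains expressed in a baculovirus system and purified on Ni-NTA. Kinase activity measured by ELISA-based EGFR tyrosine kinase assay; at least three independent determinations, mean ± SD.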

SMILES | Ratio IC50
C=CC(=O)Nc1cc(Nc2ncc(Br)c(Nc3ccc4c(c3)CCC4)n2)c(OC)cc1N1CCN(C)CC1 | 63
C=CC(=O)Nc1cc(Nc2ncc(Br)c(Nc3ccc4cc[nH]c4c3)n2)ccc1N(C)CCN(C)C | 43
C=CC(=O)Nc1cc(Nc2ncc(Br)c(Nc3ccc4cc[nH]c4c3)n2)ccc1N1CCN(C)CC1 | 14
C=CC(=O)Nc1cc(Nc2ncc(Br)c(Nc3ccc4ccn(C)c4c3)n2)c(OC)cc1N1CCN(C)CC1 | 68
CCC(=O)Nc1cc(Nc2ncc(Br)c(Nc3ccc4cc[nH]c4c3)n2)c(OC)cc1N1CCN(C)CC1 | 34
C=CC(=O)Nc1cc(Nc2ncc(Br)c(Nc3ccc4c(c3)CCC4)n2)ccc1N(C)CCN(C)C | 43
C=CC(=O)Nc1cc(Nc2nccc(Nc3ccc4c(ccn4C)c3)n2)c(OC)cc1N1CCN(C)CC1 | 3
C=CC(=O)Nc1cc(Nc2ncc(Br)c(Nc3ccc4c(c3)CCC4)n2)ccc1N1CCN(C)CC1 | 17
